These are literature values, as cited in patent publication US20100166701A1, “METHOD FOR TREATING RENAL CELL CARCINOMA USING GLYCOGENOLYSIS INHIBITORS” (priority 2008, published 2010).

In this data set the test system is metastatic RCC. The following applies: cited from earlier work.

As to “IL-2: interleukin-2, current standard of care in human RCC”, the toxic side-effects result (in vivo) was “vascular leak syndrome with peripheral edema, weight gain, ascites, and/or plural effusions and pulmonary edema”. Where the note is “metastatic RCC, high doses”, the average response rate is 14 to 20%. In addition, where the note is “metastatic RCC”, the “increased survival rate over five years” value was approximately 3%.
